ChEMBL document CHEMBL1132324, “Structure-activity relationships in 1,4-benzodioxan-related compounds. 6. Role of the dioxane unit on selectivity for alpha(1)-adrenoreceptor subtypes” (J Med Chem, 1999)

System: Alpha-1B adrenergic receptor (Cavia porcellus)
Assay: Antagonist affinity was expressed as apparent pKb at Alpha-1B adrenergic receptor on isolated Guinea pig spleen (Alpha-1B)

COc1cccc(OC)c1OCCNC[C@H]1Oc2ccccc2O[C@@H]1c1ccccc1
pKb: 5.55
